# Source: PubChem BioAssay AID489028 (Sanford-Burnham Center for Chemical Genomics, 2010)
# Sequences of proteins named here, by UniProt entry; tags and fusion partners are left off. A change or cut given only in a name is not applied to a line headed by its entry.
# UniProt O15151: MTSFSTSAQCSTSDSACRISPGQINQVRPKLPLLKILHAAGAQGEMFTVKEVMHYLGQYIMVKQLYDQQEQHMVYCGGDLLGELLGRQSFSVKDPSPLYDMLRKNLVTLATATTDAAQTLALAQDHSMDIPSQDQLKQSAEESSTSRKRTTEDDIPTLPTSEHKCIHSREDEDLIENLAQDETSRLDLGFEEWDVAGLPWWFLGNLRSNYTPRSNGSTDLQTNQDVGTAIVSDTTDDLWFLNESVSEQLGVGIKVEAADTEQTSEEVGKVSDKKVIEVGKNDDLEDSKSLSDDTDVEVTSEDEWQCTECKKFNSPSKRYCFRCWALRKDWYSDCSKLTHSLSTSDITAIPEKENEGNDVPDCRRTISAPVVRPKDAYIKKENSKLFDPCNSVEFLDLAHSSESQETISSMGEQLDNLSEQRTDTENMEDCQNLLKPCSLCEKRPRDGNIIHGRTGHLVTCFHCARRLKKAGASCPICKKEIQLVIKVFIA
# UniProt Q00987, whole entry, looked up: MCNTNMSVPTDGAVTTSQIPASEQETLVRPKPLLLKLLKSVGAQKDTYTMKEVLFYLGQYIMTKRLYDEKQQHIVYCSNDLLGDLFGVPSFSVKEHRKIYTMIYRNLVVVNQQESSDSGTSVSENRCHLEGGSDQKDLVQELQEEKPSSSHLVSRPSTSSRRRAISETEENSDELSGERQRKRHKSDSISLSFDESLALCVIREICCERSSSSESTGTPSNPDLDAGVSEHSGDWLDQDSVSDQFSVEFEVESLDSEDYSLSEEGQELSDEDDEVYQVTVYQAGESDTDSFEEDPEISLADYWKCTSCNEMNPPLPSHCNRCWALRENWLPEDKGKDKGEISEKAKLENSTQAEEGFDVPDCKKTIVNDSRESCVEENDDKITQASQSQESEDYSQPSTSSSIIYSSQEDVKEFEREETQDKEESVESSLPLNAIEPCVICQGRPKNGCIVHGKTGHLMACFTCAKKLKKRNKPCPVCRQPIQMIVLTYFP
# Only a part is listed here, and it is no random draw. Calls of active or inactive are those of the source. No stated cut-off is given here; in the data, active means inhibition above about 40%; inactive means the rest.
# Target: Protein Mdm4 (Homo sapiens) + E3 ubiquitin-protein ligase Mdm2 (Homo sapiens) (UniProt O15151+Q00987)
# Assay: Mdm2-MdmX complex disruptors, retested hits, confirmation, luminescence, single concentration (AID 489028)
# Conditions: Mdm2-MdmX binding, luminescent assay; at 8 µM; hits give high values
row,Structure (SMILES),inhibition
1,C[N+]1=C2C=CC=CC=C2SC12C([N+](=O)[O-])=CC([N+](=O)[O-])=C[C-]2[N+](=O)[O-] (stereo not drawn),active: 52.5%
2,CCC1=CC2Cc3nc4ccc(Cl)cc4c(N)c3C(C1)C2 (stereo not drawn),active: 54.4%
3,CN(C)C(=O)c1cc([N+](=O)[O-])cc2c1-c1c(cc([N+](=O)[O-])cc1[N+](=O)[O-])C2=O,active: 54.8%
